The numbers were not newly measured in patent publication US8034843B2, “Compositions comprising cannabinoids for treatment of nausea, vomiting, emesis, motion sickness or like conditions” (priority 2002, dated 2011), which cites them from elsewhere.

Sequences of proteins named here, by UniProt entry; tags and fusion partners are left off.
UniProt P21554, whole entry, species assumed: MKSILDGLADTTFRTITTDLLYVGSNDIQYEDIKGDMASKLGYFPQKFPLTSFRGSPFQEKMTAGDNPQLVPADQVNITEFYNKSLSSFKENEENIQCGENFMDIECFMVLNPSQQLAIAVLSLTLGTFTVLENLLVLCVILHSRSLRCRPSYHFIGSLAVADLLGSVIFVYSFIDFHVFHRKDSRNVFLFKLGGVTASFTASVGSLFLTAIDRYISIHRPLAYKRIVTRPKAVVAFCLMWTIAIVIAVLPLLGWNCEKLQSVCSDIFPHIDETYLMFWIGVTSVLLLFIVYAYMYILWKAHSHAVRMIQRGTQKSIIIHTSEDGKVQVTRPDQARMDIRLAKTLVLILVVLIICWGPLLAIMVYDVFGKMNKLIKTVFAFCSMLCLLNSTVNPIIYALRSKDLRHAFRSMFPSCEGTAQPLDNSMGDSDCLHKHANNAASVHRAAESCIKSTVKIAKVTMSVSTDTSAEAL

The target of this data set is CB1 (Brain receptors) (Homo sapiens, UniProt P21554). The following applies: cited from earlier work.

In the case of `C=C(C)[C@@H]1CCC(C)=C[C@H]1c1c(O)cc(CCCCC)cc1O` [CBD, cannabidiol], the “binding to CB1 receptors” value was “relatively inactive”.
